The chains behind the UniProt entries cited, without tags or fusion partners.
UniProt P18901, whole entry: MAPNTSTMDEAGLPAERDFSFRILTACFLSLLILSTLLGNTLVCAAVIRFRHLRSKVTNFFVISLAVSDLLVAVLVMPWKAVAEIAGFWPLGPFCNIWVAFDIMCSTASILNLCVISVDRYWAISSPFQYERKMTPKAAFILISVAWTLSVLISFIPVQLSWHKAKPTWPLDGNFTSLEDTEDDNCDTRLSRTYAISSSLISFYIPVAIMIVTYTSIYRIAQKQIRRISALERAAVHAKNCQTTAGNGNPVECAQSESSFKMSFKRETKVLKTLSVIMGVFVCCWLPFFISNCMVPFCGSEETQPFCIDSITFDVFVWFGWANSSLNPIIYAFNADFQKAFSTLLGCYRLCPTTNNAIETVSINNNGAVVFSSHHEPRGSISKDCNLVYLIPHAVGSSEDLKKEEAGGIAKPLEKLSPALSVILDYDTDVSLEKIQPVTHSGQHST
UniProt P14416, whole entry: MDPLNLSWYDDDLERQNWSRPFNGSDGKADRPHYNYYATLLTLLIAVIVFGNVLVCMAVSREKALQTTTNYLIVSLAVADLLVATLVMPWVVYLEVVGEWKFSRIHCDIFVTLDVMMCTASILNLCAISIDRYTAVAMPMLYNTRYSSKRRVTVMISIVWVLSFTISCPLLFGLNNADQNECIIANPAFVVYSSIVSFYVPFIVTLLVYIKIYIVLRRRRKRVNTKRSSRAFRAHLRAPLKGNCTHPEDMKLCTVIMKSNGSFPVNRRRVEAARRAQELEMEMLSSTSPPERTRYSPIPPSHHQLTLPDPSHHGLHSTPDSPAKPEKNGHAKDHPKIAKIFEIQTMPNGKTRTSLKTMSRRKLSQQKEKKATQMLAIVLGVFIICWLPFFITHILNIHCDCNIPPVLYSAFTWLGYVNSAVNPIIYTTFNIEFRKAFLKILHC

According to ChEMBL document CHEMBL1139353, “Discovery of a new class of potential multifunctional atypical antipsychotic agents targeting dopamine D3 and serotonin 5-HT1A and 5-HT2A receptors: design, synthesis, and effects on behavior” (J Med Chem, 2009):

Key:
D(1A) dopamine receptor = D(1A) dopamine receptor (Rattus norvegicus, UniProt P18901)
D(2) dopamine receptor [1] = target: T1, D(2) dopamine receptor (Homo sapiens, UniProt P14416); test: Antagonist activity at human dopamine D2L receptor expressed in CHO cells by [35S]GTPgammaS binding assay; assay type: functional, cell-based
D(2) dopamine receptor [2] = target: T1, D(2) dopamine receptor; test: Antagonist activity at human dopamine D2S receptor expressed in CHO cells by [35S]GTPgammaS binding assay; assay type: functional, cell-based

Compound | Ki (D(1A) dopamine receptor) [nM] | IC50 (D(2) dopamine receptor [1]) [nM] | IC50 (D(2) dopamine receptor [2]) [nM]
Cc1nc2n(c(=O)c1CCN1CCC(c3noc4cc(F)ccc34)CC1)CCCC2 [RISPERIDONE] | 50 |  | 
Cc1cccc(N2CCN(CCCCNC(=O)c3cc4ccccc4o3)CC2)c1 |  | 584 | 1240
